ChEMBL document CHEMBL4376854, “Investigation of the Adrenergic and Opioid Binding Affinities, Metabolic Stability, Plasma Protein Binding Properties, and Functional Effects of Selected Indole-Based Kratom Alkaloids” (J Med Chem, 2020)

Experiments:
[1] = Toxicity in Sprague-Dawley rat assessed as induction of hypothermia at 0.0032 to 10 mg/kg, iv; settings: in vivo
Rattus norvegicus = experiment: Antinociceptive activity in Sprague-Dawley rat dosed intravenously using cumulative dosing every 5 mins until rat maxed-out on hot plate by hot plate test

CN(C(=O)Cc1ccccc1)[C@H]1CC[C@@]2(CCCO2)C[C@@H]1N1CCCC1
Activity [1]: Toxic
ED50 (Rattus norvegicus): 1.81 mg/kg
